We go through three molecules from US10479793B2, “Imidazopyridazine compounds useful as modulators of IL-12, IL-23 and/or IFN alpha responses” (BRISTOL-MYERS SQUIBB COMPANY, priority 2015, dated 2019).

By UniProt entry, the sequences of proteins in these tests, tags left out. Chains listed by the source or under a name are the forms on record and can include a tag or linker. Residues count along the entry.
UniProt P29597, 575-869 with tags or gaps: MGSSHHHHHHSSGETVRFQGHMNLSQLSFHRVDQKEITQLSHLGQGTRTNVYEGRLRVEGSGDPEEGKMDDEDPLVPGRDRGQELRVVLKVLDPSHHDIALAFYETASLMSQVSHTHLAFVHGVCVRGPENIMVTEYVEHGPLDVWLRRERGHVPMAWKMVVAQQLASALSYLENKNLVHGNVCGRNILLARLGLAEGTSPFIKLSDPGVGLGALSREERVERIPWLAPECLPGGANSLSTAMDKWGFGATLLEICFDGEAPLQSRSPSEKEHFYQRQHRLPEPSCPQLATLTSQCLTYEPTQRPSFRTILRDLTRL

Test [1] has as its system IL-23 stimulated Kit225 T cells with a stably-integrated STAT-dependent luciferase reporter. The test can be described thus: Kit225 T cell assay, IL-23 stimulated STAT-dependent luciferase reporter. The class given is cell-based. The conditions noted are these: read-out: IL-23 Kit225 Reporter, (IC50), 20 ng/mL human recombinant IL-23, 5-6 hours. A general note: In a reporter assay the amount or activity of a reporter protein is the signal.

Test [2] concerns IFNα stimulated Kit225 T cells with a stably-integrated STAT-dependent luciferase reporter. Briefly: Kit225 T cell assay, IFNα stimulated STAT-dependent luciferase reporter. The class given is cell-based. The conditions noted are these: read-out: IFNa Kit225 Reporter, (IC50), 200 U/mL human recombinant IFNα, 5-6 hours.
Test [3] concerns the target recombinantly expressed His-tagged protein corresponding to amino acids 575-869 of human Tyk2 (Homo sapiens, UniProt P29597). Briefly: Probe displacement assay (scintillation proximity, tritiated probe). The class given is binding. The conditions noted are these: read-out: Probe Displacement (EC50); His-tagged Tyk2 (575-869) 2.5 nM, 40 nM radiolabeled probe, 30 minutes at room temperature. Background: In a scintillation proximity assay essentially only radioactivity close to the scintillant gives light.

Structures are written as SMILES.

On to `CNc1cc(Nc2cccnc2C(=O)NC2CCS(=O)(=O)C2)nn2c(C(=O)NC3CC3)cnc12` (stereo not drawn), for which the IC50 is 440 nM in test [1] and 1260 nM in test [2]. In test [3], the EC50 – broadly, the concentration at which the effect is half-maximal – worked out at 80 nM.
On the same counts, the results for `CNc1cc(Nc2cccnc2C(=O)NCCF)nn2c(C(=O)NC3CC3)cnc12` are 470 nM, 1420 nM and 9.39 nM.
On the same counts, the results for `CNc1cc(Nc2cccc(-n3nccc3O)n2)nn2c(C(=O)NC3CC3)cnc12` are 8690 nM, 8810 nM and 200 nM.
